According to patent US20030224416A1, “Schizophrenia related gene” (priority 2002, published 2003):

System: Kv3.1 α-subunit mRNA
Assay: Experiment 1: in situ hybridization of Kv3.1 α-subunit mRNA in brain, chronic PCP rat model of schizophrenia with antipsychotic co-treatment
Format: in vivo

`Cc1cc2c(s1)Nc1ccccc1N=C2N1CCN(C)CC1` [Olanzapine, olanzapine] was tested, and the “Kv3.1 α-subunit mRNA expression” value (CA2pd, PCP + drug 3 mg/kg/day) was 24.21 ± 1.23 PSL/mm^2, the “Kv3.1 α-subunit mRNA expression” value (DLStr, PCP + drug 0.3 mg/kg/day) was 6.87 ± 0.38 PSL/mm^2 and the “Kv3.1 α-subunit mRNA expression” value (DLStr, PCP + drug 1 mg/kg/day) was 6.99 ± 0.43 PSL/mm^2. For the same molecule, the “Kv3.1 α-subunit mRNA expression” value (DLStr, PCP + drug 10 mg/kg/day) was 6.70 ± 0.59 PSL/mm^2, the “Kv3.1 α-subunit mRNA expression” value (M2, PCP + drug 0.3 mg/kg/day) was 13.72 ± 0.78 PSL/mm^2 and the “Kv3.1 α-subunit mRNA expression” value (M2, PCP + drug 1 mg/kg/day) was 12.57 ± 0.94 PSL/mm^2. The “Kv3.1 α-subunit mRNA expression” value (M2, PCP + drug 10 mg/kg/day) was 13.14 ± 0.99 PSL/mm^2, the “Kv3.1 α-subunit mRNA expression” value (MG, PCP + drug 1 mg/kg/day) was 25.50 ± 1.46 PSL/mm^2 and the “Kv3.1 α-subunit mRNA expression” value (MG, PCP + drug 10 mg/kg/day) was 25.78 ± 0.77 PSL/mm^2. The “Kv3.1 α-subunit mRNA expression” value (MM, PCP + drug 0.3 mg/kg/day) was 25.36 ± 2.25 PSL/mm^2, the “Kv3.1 α-subunit mRNA expression” value (MM, PCP + drug 1 mg/kg/day) was 25.76 ± 1.27 PSL/mm^2 and the “Kv3.1 α-subunit mRNA expression” value (MM, PCP + drug 3 mg/kg/day) was 25.24 ± 2.32 PSL/mm^2. The “Kv3.1 α-subunit mRNA expression” value (PrL, PCP + drug 0.3 mg/kg/day) was 12.50 PSL/mm^2, the “Kv3.1 α-subunit mRNA expression” value (PrL, PCP + drug 1 mg/kg/day) was 12.78 PSL/mm^2 and the “Kv3.1 α-subunit mRNA expression” value (PrL, PCP + drug 3 mg/kg/day) was 13.18 PSL/mm^2. For the same molecule, the “Kv3.1 α-subunit mRNA expression” value (PrL, PCP + drug 10 mg/kg/day) was 12.66 PSL/mm^2, the “Kv3.1 α-subunit mRNA expression” value (SN, PCP + drug 1 mg/kg/day) was 13.98 ± 0.96 PSL/mm^2 and the “Kv3.1 α-subunit mRNA expression” value (SN, PCP + drug 3 mg/kg/day) was 13.09 ± 0.44 PSL/mm^2. The “Kv3.1 α-subunit mRNA expression” value (SN, PCP + drug 10 mg/kg/day) was 12.54 ± 0.68 PSL/mm^2, the “Kv3.1 α-subunit mRNA expression” value (VMStr, PCP + drug 0.3 mg/kg/day) was 7.33 PSL/mm^2 and the “Kv3.1 α-subunit mRNA expression” value (VMStr, PCP + drug 1 mg/kg/day) was 6.88 ± 0.46 PSL/mm^2.
